This assay addresses Serotonin (5-HT) receptor. Put plainly: Compound was evaluated for binding affinity towards 5-hydroxytryptamine receptor in isolated rat fundus preparation measured as pA2.

Drawing on ChEMBL document CHEMBL1121558, “Studies on several 7-substituted N,N-dimethyltryptamines” (J Med Chem, 1980), this text covers pA2 for 1 compound.

The term pA2 denotes the negative logarithm of the molar antagonist concentration that doubles the agonist concentration needed for the same response. Read a high pA2 as a more potent antagonist.

For the compound `CN(C)CCc1c[nH]c2ccccc12` [N,N-DIMETHYLTRYPTAMINE], the pA2 worked out at 6.
